The values that follow come from article PMC3298469, “A selective and potent CXCR3 antagonist SCH 546738 attenuates the development of autoimmune diseases and delays graft rejection” (BMC Immunology, 2012).

In the assay the test system is C57BL/6 mice. Kind of assay: mouse experimental autoimmune encephalomyelitis (MOG35-55). In kind it is in vivo. Particulars: 1700 ng daily intramuscular injection, alone.

B1: IFN-β: interferon-β, a current first-line therapeutic for relapsing-remitting MS (protein, UniProt P01574 22-187, looked up)
Interferon beta: MSYNLLGFLQRSSNFQCQKLLWQLNGRLEYCLKDRMNFDIPEEIKQLQQFQKEDAALTIYEMLQNIFAIFRQDSSSTGWNETIVENLLANVYHQINHLKTVLEEKLEKEDFTRGKLMSSLHLKRYYGRILHYLKAKEYSHCAWTIVRVEILRNFYFINRLTGYLRN
B1: the “effect on disease onset and severity” value is “significantly delayed disease onset and attenuated disease severity”.
